From patent US5045530A, “Pharmaceutical preparations” (priority 1986, dated 1991)

Assay: hydrodynamic (Stokes) radius / size of micelles and vesicles, inelastic light scattering
Assay type: physicochemical

Row | Substance | <RH> hydrodynamic radius
1 | 2-carboxamid-3-dodecyl-1,4-pyridinium | 750
2 | 2-Carboxamid-3-hexadecyl-1,4-pyridinium | 220
